Reference: patent US20210346665A1, “CONDUCTIVE MICRONEEDLE PATCH FOR ACTIVE AGENT DELIVERY” (Singapore Health Services Pte Ltd, priority 2018, published 2021)

Assay: drug loading and release from MeHA MN patches in PBS
Type: physicochemical
Details: 10 minutes incubation with drug solution in PBS
Protocol: The drug loading capabilities of MeHA MNs was investigated by using model drugs of different molecular weights, mainly fluorescein isothiocyanate (FITC), FITC-Dextran and doxorubicin hydrochloride (Dox). The innate ability of the MeHA MN arrays to absorb fluid is taken advantage of to load the drug molecules into the MN tips. All three drugs are dissolved in PBS which were then used to equilibrate MeHA MN patches. After 10 minutes of incubation with the drug solution, the MNs were left to dry in the fumehood (FIG. 14). The amount of drug encapsulated in the MN was determined by immersing the drug loaded MeHA in 1×PBS. By obtaining a 50 μL of the solution at various time points, the fluorescence intensity was measured to determine the drug release profile of the three different drug molecules. […] FITC and FITC-Dextran with low molecular weights (3 to 5 kDa) were easily loaded into the MN tips as compared to bigger Dox molecules (20 kDa).
Next, the release profiles of drugs from the MeHA MN patches were examined. As depicted in FIG. 3B, more than 80% of FITC and FITC-Dextran were released from the MN patches within 30 minutes.

FITC-Dextran
loading into the MN tips through swelling: easily loaded
